Protein sequences, listed by entry. Tags and fused reporters are not part of them. Residues count along the entry.
UniProt Q7M6Y2, whole entry: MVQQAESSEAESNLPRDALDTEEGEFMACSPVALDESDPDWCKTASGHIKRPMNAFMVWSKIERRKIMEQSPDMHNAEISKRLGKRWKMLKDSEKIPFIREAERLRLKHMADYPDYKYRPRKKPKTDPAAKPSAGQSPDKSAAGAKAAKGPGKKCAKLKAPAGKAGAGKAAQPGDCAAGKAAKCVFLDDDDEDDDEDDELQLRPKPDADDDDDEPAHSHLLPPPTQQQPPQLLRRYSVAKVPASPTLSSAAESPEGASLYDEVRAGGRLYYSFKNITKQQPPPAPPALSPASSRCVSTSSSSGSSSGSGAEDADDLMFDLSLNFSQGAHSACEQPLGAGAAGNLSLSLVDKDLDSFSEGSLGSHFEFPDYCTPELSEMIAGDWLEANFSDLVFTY
UniProt Q04887, 105-173 limits assumed: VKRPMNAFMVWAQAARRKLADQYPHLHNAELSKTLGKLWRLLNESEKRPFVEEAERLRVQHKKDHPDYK
UniProt P43680, 69-177 limits assumed: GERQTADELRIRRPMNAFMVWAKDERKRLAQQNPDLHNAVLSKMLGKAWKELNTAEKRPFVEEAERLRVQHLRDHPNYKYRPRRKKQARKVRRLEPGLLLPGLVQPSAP

In patent US20240002326A1, “COMPOUNDS AND USE THEREOF IN METHODS OF TREATMENT” (The University of Queensland, priority 2016, published 2024):

Columns and labels:
SOX11 HMG fragment = SOX11 HMG fragment (Mus musculus, UniProt Q7M6Y2); test: FP DNA-binding competition assay, SOX11 HMG fragment; settings: read-out: DNA-binding inhibition IC50, SOX11 HMG; HMG only fragment
Procedure: (§1) Mouse SOX HMG fragments. The HMG domains of mouse SOX2 (Group B), SOX11 (Group C), SOX6 (Group D), SOX9 (Group E), SOX18 (Group F) and SOX15 (Group G) were BP cloned from cDNA templates (IMAGE cDNA clone IDs: Sox18: 3967084; Sox9: 5354229; Sox4: 6822618) into a pDONRTM221 pENTRY vector, sequenced and recombined into a pETG20A or a pHisMBP expression plasmid using Gateway®LR Technology (Ng et al., 2012). Constructs were transformed into Escherichia coli BL21(DE3) cells (Luria-Bertani, 100 μg/ml Ampicillin).
(§2) The DNA-binding competition assay was performed in black 384-well plates, with mouse full length SOX18, or SOX-HMG fragments. All experiments were performed using a fluorescently-labelled Prox1-DNA element. […]
(§3) The DNA-binding competition assay was performed in 25 uL, in black 384-well plates, using either 30 mM HEPES (N-2-Hydroxyethylpiperazine-N′-2-Ethanesulfonic Acid) (pH 7.5, with 100 mM KCl, 40 mM NaCl, 10 mM NH4OAc, […], 2 mM MgCl2, 0.5 mM EDTA, 0.01% NP-40) for mouse full length SOX18, or Tris-NaCl (10 mM Tris pH 8.0 and 100 mM NaCl) for SOX-HMG fragments. […] After mixing protein, DNA probe and compound, plates were sealed and briskly agitated in the dark for 5 minutes at room temperature, 10 minutes at 37° C., and 30 minutes at room temperature, before reading fluorescence polarization on a Tecan M1000Pro (λexc=485 nm, λem=525 nm). […]

SOX9 HMG fragment = SOX9 HMG fragment (Mus musculus (Mouse), UniProt Q04887); test: FP DNA-binding competition assay, SOX9 HMG fragment; settings: read-out: DNA-binding inhibition IC50, SOX9 HMG; HMG only fragment
Procedure: as §1, §2, §3

mouse SOX18-HMG (109aa) = mouse SOX18-HMG (109aa) (Mus musculus (Mouse), UniProt P43680); test: Direct protein binding assay (thermal aggregation, static light scattering); settings: 500 μM for Sm4 and Sm14, 1.5 mM for Sm5

In the case of `O=C(O)c1c(O)cccc1CCc1ccc2ccccc2c1`, the IC50 (SOX11 HMG fragment) is reported as 270 to 310 µM, the IC50 (SOX9 HMG fragment) is reported as 270 to 310 µM and the “increase in Tagg” value (mouse SOX18-HMG (109aa)) is reported as “more than 3 °C”.
